Earlier results in PMC6334293 (Journal of medicinal chemistry, 2018).

Tested on: GCB-and ABC-type DLBCL xenograft models
Conditions: cited from earlier work

For `O=C(O)CCN1C(=O)/C(=C2/C(=O)Nc3ccc(Cl)cc32)SC1=S` [FX1], the in vivo efficacy (GCB-and ABC-type DLBCL xenograft models) is given as “excellent efficacy” and the in vivo toxicity (at high concentrations) is given as “nontoxic”.
